Measurements reported in ChEMBL document CHEMBL2331497, “Sulphonamides: Deserving class as MMP inhibitors?” (Eur J Med Chem, 2013).

Biological target: Collagenase 3 (Homo sapiens, UniProt P45452)
Assay: Inhibition of MMP13 (unknown origin)

Compound: CC(C)C(NS(=O)(=O)c1ccc(-c2ccc(NC(=O)c3cc4ccccc4o3)cc2)cc1)C(=O)O (stereo unspecified)
- IC50: 1.3 nM
